Test results published in ChEMBL document CHEMBL4765256, “Structural features and functional activities of benzimidazoles as NOD2 antagonists” (Eur J Med Chem, 2020).

Species on record: Homo sapiens
Assay: Selectivity index, ratio of IC50 for antagonist activity at human NOD2 cells expressed in HEK293 cells assessed as reduction in MDP induced NF-kappaB activation preincubated for 1 hr followed by MDPA stimulation and measured after 18 hrs by SEAP reporter gene based spectrophotometric analysis to IC50 for antagonist activity at human NOD1 expressed in HEK293 cells assessed as reduction in C12-iEE-DAP induced NF-kappaB activation preincubated for 1 hr followed by C12-iE-DAP stimulation and measured after 18 hrs by SEAP reporter gene based spectrophotometric analysis
Type: cell-based

`Cc1ccc(S(=O)(=O)n2c(N)nc3ccccc32)cc1` was tested, and the Ratio IC50 was 71.
